Target: T1, mouse endothelin receptor type A (mETA), P9 fusion, purified and solubilised in sarkosyl (mouse, UniProt Q61614)
T1 construct: mouse endothelin receptor type A, gene synthesised by GenScript (NCBI Gene ID 13617); also called mouse ETA; source: E. coli BL21(DE3) with pP9-mETA, membrane fraction dissolved in 0.5% sarkosyl, purified (Ni-NTA, PD-10)
Experiment: ELISA; Gαi3 (4 μg/ml in 0.05 M Na2CO3 pH 9.6) coated, hETA or mETA (4 μg/ml, in 0.5% sarkosyl) captured, AG8 IgG serially diluted in PBS pH 7.4 added, washes in PBST, detection with goat anti-human IgG (H+L)-HRP; apparent affinities
Details: both partners purified

The chains behind the UniProt entries cited, without tags or fusion partners. Residues count along the entry.
UniProt Q61614, 21-427: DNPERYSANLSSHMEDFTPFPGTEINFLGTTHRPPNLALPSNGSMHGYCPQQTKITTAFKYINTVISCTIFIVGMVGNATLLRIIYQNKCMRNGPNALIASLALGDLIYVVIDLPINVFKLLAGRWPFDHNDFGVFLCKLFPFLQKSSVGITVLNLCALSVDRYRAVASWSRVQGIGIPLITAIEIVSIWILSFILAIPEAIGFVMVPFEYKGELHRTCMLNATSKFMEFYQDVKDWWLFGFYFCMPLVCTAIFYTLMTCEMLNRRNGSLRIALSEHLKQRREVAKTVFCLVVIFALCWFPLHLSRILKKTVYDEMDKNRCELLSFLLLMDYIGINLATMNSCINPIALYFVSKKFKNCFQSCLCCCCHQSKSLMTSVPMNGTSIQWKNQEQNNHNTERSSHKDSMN

binding result: binds
B1: AG8 IgG (full-length human IgG) (antibody, V domains shown)
VH: EVQLVESGAEVRKPGASVKVSCKASGYTFTSSDINWIRQATGQGLEWMGYMNPKNGNTDYAQKFQGRISMTRDSSISTAYMELSSLRSEDTAVYYCAKDRYGSGTYGFGMDVWGPGTLVTVSS
VL: DIVMTQSPSAMSASVGDRVSITCRASQGINNYLAWFQQKPGKVPKRLMDVGSILQSGIPSRFRGRGSGTQFTLTISSLQAEDSGTYFCLQHNTYPLTFGPGTKVEIK

Reference: paper PMC8492878, “A human antibody against human endothelin receptor type A that exhibits antitumor potency” (Experimental & Molecular Medicine, 2021)
